Test results as given in PubChem BioAssay AID651687 (Broad Institute, 2012).
This is a selection; strong and weak results do not stand in their true shares. Calls of active or inactive are those of the source.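 The calls were made as follows: active = every replicate shows inhibition of at least 40%; inconclusive = mean inhibition at least 40% but some replicate below; inactive = the rest.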

Test: compounds lowering acetylated PGC1a in cells – cell-based, U2OS, AlphaScreen, inhibitor mode, primary screen (AID 651687);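 also: 0% = neutral control wells and 100% = positive control wells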
Conditions: U2OS PGC1a acetylation, AlphaScreen anti-acetyl-lysine; at 15.6 µM; hits give high values; with virally co-expressed GCN5 acetyltransferase

SMILES | inhibition
CN1CCC(Nc2ccc(Cl)cc2)CC1 | inactive: -2.67%
CCC(CO)(C(=O)OC1CN2CCC1CC2)c1ccccc1 (configuration not stated) | inactive: 4.1%
COc1cccc(C(=O)N(c2cc(C)cc(C)c2)C2CCN(C(=O)OC(C)(C)C)CC2)c1 | inactive: -16.5%
COc1cccc(C(c2nnnn2C2CCCC2)N2CCC(n3c(=O)[nH]c4ccccc43)CC2)c1OC (configuration not stated) | inactive: -13%
COc1cc(OC)cc(C(=O)NCC2(N3CCOCC3)CCCCC2)c1 | inactive: 4.21%
O=c1[nH]c2ccccc2n1C1CCN(C(c2cc3ccccc3o2)c2nnnn2C2CCCC2)CC1 (configuration not stated) | inactive: -20.3%
O=C(O)C1(Nc2ccccc2)CCN(Cc2ccccc2)CC1 | inactive: -10.4%
CC(C)(C)OC(=O)N1CCC(Nc2ccccc2)CC1 | inactive: -22.7%
CCOc1ncccc1C(=O)NCC1(N2CCOCC2)CCCCC1 | inactive: -0.662%
Cn1c(=O)[nH]cc(N(CCCl)CCCl)c1=O | inactive: -4.63%
O=C(NCC1(N2CCCCC2)CCCCC1)c1ccco1 | inactive: -2.53%
CC(C)(C)n1nnnc1C(c1ccnc2ccccc12)N1CCC(n2c(=O)[nH]c3ccccc32)CC1 (configuration not stated) | inactive: 3.48%
COc1ccc(C(c2nnnn2C2CCCCC2)N2CCC(n3c(=O)[nH]c4ccccc43)CC2)cc1 (configuration not stated) | inactive: -13.7%
Cc1ccccc1NC1(C#N)CCN(Cc2ccccc2)CC1 | inactive: -2.32%
Cc1ccc(NC2(C#N)CCN(Cc3ccccc3)CC2)cc1 | inactive: -5.93%
Fc1ccccc1NC1CCN(Cc2ccccc2)CC1 | inactive: -8.82%
Cc1ccc(C(=O)NCC2(N3CCCCC3)CCCCC2)o1 | inactive: 9.94%
O=c1[nH]c2ccccc2n1C1CCN(C(c2ccnc3ccccc23)c2nnnn2C2CCCCC2)CC1 (configuration not stated) | inactive: -5.47%
CCC(c1nnnn1C1CCCCC1)N1CCC(n2c(=O)[nH]c3ccccc32)CC1 (configuration not stated) | inactive: -18.9%
CC(=O)N(c1ccccc1)C1CCNCC1 | inactive: 3.3%
COc1cccc(C(c2nnnn2C2CCCCC2)N2CCC(n3c(=O)[nH]c4ccccc43)CC2)c1OC (configuration not stated) | inactive: -14.7%
CC(C)(C)n1nnnc1C(c1cccc2ccccc12)N1CCC(n2c(=O)[nH]c3ccccc32)CC1 (configuration not stated) | inactive: -10.4%
O=c1[nH]c2ccccc2n1C1CCN(C(c2ccccc2)c2nnnn2C2CCCC2)CC1 (configuration not stated) | inactive: -2.22%

SMILES | inhibition
CCCN1CCC(Nc2cc(OC)cc(OC)c2)CC1 | inactive: 1.89%
Cc1cc(N(CCCl)CCCl)ccc1C=O | inactive: 0.204%
c1ccc(CN2CCC(Nc3ccccc3)CC2)cc1 | inactive: -1.06%
CN(C)C1(CNC(=O)c2cccc(C#N)c2)CCCCC1 | inactive: 7.57%
CC(C)(C)OC(=O)N1CCC(N(C(=O)c2ccccc2)c2ccc(Cl)cc2)CC1 | inactive: 10.3%
N#Cc1ccc(C(=O)NCC2(N3CCCCC3)CCCCC2)cc1 | inactive: -3.75%
CCCCn1nnnc1C(c1cccc(OC)c1OC)N1CCC(n2c(=O)[nH]c3ccccc32)CC1 (configuration not stated) | inactive: -8.04%
O=c1[nH]c2ccccc2n1C1CCN(C(c2cccs2)c2nnnn2C2CCCC2)CC1 (configuration not stated) | inactive: -49.4%
N/C(=N\O)c1c(N)no[n+]1[O-] | inactive: 3.18%
COc1cccc(C(c2nnnn2C(C)(C)C)N2CCC(n3c(=O)[nH]c4ccccc43)CC2)c1OC (configuration not stated) | inactive: -21.3%
CCOC(=O)N1CCC(Nc2ccc(C)cc2)CC1 | inactive: 4.9%
O=c1[nH]c2ccccc2n1C1CCN(C(c2ccnc3ccccc23)c2nnnn2C2CCCC2)CC1 (configuration not stated) | inactive: -0.245%
COc1ccc(C(=O)NCC2(N3CCOCC3)CCCCC2)cc1OC | inactive: -4.06%
O=c1[nH]c2ccccc2n1C1CCN(C(c2cccs2)c2nnnn2C2CCCCC2)CC1 (configuration not stated) | inactive: -25.6%
O=C(NCC1(N2CCOCC2)CCCCC1)c1cc(Br)ccc1Cl | inactive: 4.7%
COc1cc(C(=O)NCC2(N3CCOCC3)CCCCC2)cc(OC)c1C | inactive: 1.45%
CCCCn1nnnc1C(c1ccccc1)N1CCC(n2c(=O)[nH]c3ccccc32)CC1 (configuration not stated) | inactive: 0.747%
CCCOc1ccc(C(=O)NCC2(N(C)C)CCCCC2)cc1OC | inactive: -7.79%
Cc1ccc(C(=O)NCC2(N(C)C)CCCCC2)o1 | inactive: -21.7%
COc1ccc(C(c2nnnn2C2CCCC2)N2CCC(n3c(=O)[nH]c4ccccc43)CC2)cc1 (configuration not stated) | inactive: -23.2%
O=C(NCC1(N2CCCCC2)CCCCC1)c1cncc(Br)c1 | inactive: 4.94%
CN1CCC(Nc2cccc(F)c2)CC1 | inactive: 5.9%
CCCCn1nnnc1C(c1ccnc2ccccc12)N1CCC(n2c(=O)[nH]c3ccccc32)CC1 (configuration not stated) | inactive: 5.44%

SMILES | inhibition
O=C(NCC1(N2CCOCC2)CCCCC1)c1cc(F)c(F)cc1Cl | inactive: -5.2%
CCC(c1nnnn1C(C)(C)C)N1CCC(n2c(=O)[nH]c3ccccc32)CC1 (configuration not stated) | inactive: -19.9%
COc1cc(OC)c(C(=O)NCC2(N(C)C)CCCCC2)cc1OC | inactive: -10.9%
COc1ccc(CN(CCCl)CCCl)cc1Cl | inactive: -15.7%
CC(C)c1ccc(NC2CCN(C(=O)OC(C)(C)C)CC2)cc1 | inactive: 1.84%
CCCCn1nnnc1C(c1ccccc1OC(F)(F)F)N1CCC(n2c(=O)[nH]c3ccccc32)CC1 (configuration not stated) | inactive: -3.53%
CCCCn1nnnc1C(c1cccc2ccccc12)N1CCC(n2c(=O)[nH]c3ccccc32)CC1 (configuration not stated) | inactive: -14.2%
COc1ccc(NC2CCN(C(=O)OC(C)(C)C)CC2)cc1 | inactive: -4.55%
CN1CCN(CCOC(=O)C(O)(c2ccccc2)c2ccccc2)CC1 | inactive: 6.45%
O=C(NCC1(N2CCOCC2)CCCCC1)c1cc(=O)[nH]c2ccccc12 | inactive: 0.604%
COc1cc(C(=O)NCC2(N3CCCCC3)CCCCC2)ccc1OC(F)F | inactive: -1.63%
O=C(NCC1(N2CCCCC2)CCCCC1)c1cccc(C(F)(F)F)c1 | inactive: 19.8%
CSc1ccc(C(=O)NCC2(N3CCOCC3)CCCCC2)cc1 | inactive: 2.14%
N#CC1(Nc2ccccc2)CCN(CCc2ccccc2)CC1 | inactive: -2.31%
O=c1[nH]c2ccccc2n1C1CCN(C(c2ccccc2OC(F)(F)F)c2nnnn2C2CCCC2)CC1 (configuration not stated) | inactive: -53.1%
CCN1CCC(Nc2ccc(Cl)cc2)CC1 | inactive: 3.04%
O=C(NCC1(N2CCCCC2)CCCCC1)c1ccc(OC(F)F)cc1 | inactive: -4.06%
CC(C)(C)n1nnnc1C(c1ccccc1OC(F)(F)F)N1CCC(n2c(=O)[nH]c3ccccc32)CC1 (configuration not stated) | inactive: -18.2%
O=c1[nH]c2ccccc2n1C1CCN(C(c2cccc3ccccc23)c2nnnn2C2CCCC2)CC1 (configuration not stated) | inactive: -30.8%
COc1cc(C(=O)NCC2(N(C)C)CCCCC2)ccc1OC(F)F | inactive: -3.44%
CCOC(=O)N1CCC(Nc2cccc(C)c2)CC1 | inactive: -7.33%
O=c1[nH]c2ccccc2n1C1CCN(C(c2ccccc2)c2nnnn2C2CCCCC2)CC1 (configuration not stated) | inactive: -24.7%
COc1ccc(NC2CCN(CCc3ccccc3)CC2)c(OC)c1 | inactive: -9.34%

SMILES | inhibition
O=P1(N(CCCl)CCCl)SCCCS1 | inactive: -12.2%
CCCCn1nnnc1C(c1cc2ccccc2o1)N1CCC(n2c(=O)[nH]c3ccccc32)CC1 (configuration not stated) | inactive: -12.5%
CCOc1ccc(C)cc1CN(CCCl)CCCl | inactive: 0.438%
O=C1CCN(Cc2ccccc2)CC1 | inactive: -4.9%
CC(C)(C)n1nnnc1C(c1ccccc1)N1CCC(n2c(=O)[nH]c3ccccc32)CC1 (configuration not stated) | inactive: -12.1%
CCCCn1nnnc1C(c1ccc(OC)cc1)N1CCC(n2c(=O)[nH]c3ccccc32)CC1 (configuration not stated) | inactive: -15.9%
CCOC(=O)N1CCC(Nc2ccc(OC)cc2)CC1 | inactive: -0.349%
COc1ccc(Cl)cc1C(=O)NCC1(N2CCOCC2)CCCCC1 | inactive: -1.7%
O=c1[nH]c2ccccc2n1C1CCN(C(c2cc3ccccc3o2)c2nnnn2C2CCCCC2)CC1 (configuration not stated) | inactive: -30.2%
O=C(OC1CN2CCC1CC2)C1c2ccccc2Oc2ccccc21 (configuration not stated) | inactive: -7.44%
O=C(NCC1(N2CCCCC2)CCCCC1)c1ccc(Cl)s1 | inactive: 5.71%
O=C(NCC1(N2CCOCC2)CCCCC1)c1cc2ccccc2o1 | inactive: -11.7%
Cc1cc(C)cc(N(C(=O)c2ccccc2)C2CCN(C(=O)OC(C)(C)C)CC2)c1 | inactive: -19.9%
O=c1[nH]c2ccccc2n1C1CCN(C(c2ccccc2OC(F)(F)F)c2nnnn2C2CCCCC2)CC1 (configuration not stated) | inactive: -53.2%
Cc1cccc(NC2(C#N)CCN(Cc3ccccc3)CC2)c1 | inactive: 6.44%
CCCCn1nnnc1C(c1cccs1)N1CCC(n2c(=O)[nH]c3ccccc32)CC1 (configuration not stated) | inactive: -14.7%
CCCCn1nnnc1C(CC)N1CCC(n2c(=O)[nH]c3ccccc32)CC1 (configuration not stated) | inactive: -21.5%
O=C(NCC1(N2CCCCC2)CCCCC1)c1cccs1 | inactive: -6.3%
O=C(NCC1(N2CCCCC2)CCCCC1)c1ccc(=O)[nH]c1 | inactive: 6.42%
CCC(c1nnnn1C1CCCC1)N1CCC(n2c(=O)[nH]c3ccccc32)CC1 (configuration not stated) | inactive: -20.8%
COc1ccc(C(=O)NCC2(N3CCCCC3)CCCCC2)c(OC)c1OC | inactive: -6.79%
CC(C)(C)OC(=O)N1CCC(N(C(=O)c2ccccc2)c2ccc(F)cc2)CC1 | inactive: 1.39%
COc1ccc(C(=O)NCC2(N3CCCCC3)CCCCC2)cc1 | inactive: -0.593%
